Legend:
[1] = test system: adult male Sprague Dawley rats with CCI injury to the mPFC; assay: Reversal of hypogonadism after Sham surgery or CCI to the mPFC (Example 7); assay type: in vivo, rat; conditions: hCG 400 IU/kg/2 days over 29 d
Experimental: Plasma concentrations (mean±SEM) of testosterone and progesterone at PID-10, 1, 11, 19 and 29. Data were analyzed using 3-way repeated measures ANOVA; post-hoc analyses were performed using the Tukey multiple comparison test. Difference letters indicate significant differences among groups over days (P<0.05). Similar significant declines in circulating concentrations of T (74.5%) and P4 (59.0%) were observed by PID1 for CCI injured animals (i.e., craniectomy+CCI+saline group). The hypogonadism induced by the surgery/CCI in both groups was maintained through day 29.
Over the last 3.5 years our lab has used controlled cortical impact (CCI) injury, a highly replicable form of focal-penetrating TBI in adult male rats, to test for neurohormones with efficacy as a treatment for TBI. The CCI to the mPFC used is moderate-severe in magnitude (injury coordinates A/P=+2.5 mm from Bregma (b); M/L=0.0 mm from midline; D/V=−3.0 to −3.5 mm from brain surface; impactor size=5 mm; velocity=2.25 m/s; dwell=100 ms; impact depth=3.5 mm). Bilateral damage to the mPFC from the CCI and retrograde degeneration of cholinergic hippocampal neurons together disrupts grip strength, locomotion, motor coordination, spatiotemporal conditioning, and increases anxiety-like behavior.

[2] = test system: adult male rats with CCI injury; assay: Rotarod vestibulomotor performance after CCI; assay type: in vivo, rat; conditions: CCI animals, PID23; hCG every 2 days
Experimental: Rats were placed on a rotating rod accelerating at a constant rate (1 rotation per second per second) and allowed to run for up to 300 s. Time elapsed before fall was recorded (n=9-12/group, *p<0.05; letters indicate differences between groups and times).
(§1) To test the effects of hCG on cognitive and motor recovery, 69 adult male rats (5-month of age) with CCI injury (group size, n=31), sham surgery (n=24) or non-surgical control (NSCon; n=14) were immediately administered saline (n=32) or hCG (200 mIU/kg/2 days n=37) over 28 d. On PID 2, 6, 9, 13 and 23, all rats were tested for vestibulomotor performance (Rotarod) and on PID 6-10 and 20-22 the same rats were tested for learning and memory (Morris water maze (MWM)), respectively. Probe Test 1 and 2 (i.e., swimming in tank for 60 s without MWM platform) were conducted on PID 12 and 24. At the end of behavioral testing, rat brains were collected, digitally imaged and analyzed for gross lesion size (% of whole brain surface area). Note that there was considerable overlap between NSCon and Sham groups (see small standard deviations for the data) and are therefore presented as one group.
To test vestibulomotor performance, rats were trained on a Rotarod. […] Improvements in vestibular balance and motor coordination induced by hCG were maintained over the 23 days post-injury, indicating utility of hCG for improving vestibulomotor function.

subject with TBI = assay: Human clinical study, Glasgow Coma Scale (planned); assay type: in vivo; conditions: hCG 5-200 IU/kg 3 times weekly, 1-18 months; in post-menopausal female with E2 and/or P4
Description: A subject with TBI as tested by the Gleason Coma Scale (GCS) with a score of 12 or less will be administered 3 times weekly a dose of hCG (e.g., 5-200 IU/kg) for 1-18 months. The subject will be retested cognitively on a quarterly basis on the GCS (and by neuroimaging).
Separately, a post-menopausal person with TBI as tested by the Gleason Coma Scale (GCS) with a score of 12 or less will be administered 3 times weekly a dose of hCG (e.g., 5-200 IU/kg) in combination with transdermal administration of E2 and/or P4 (e.g., Estradiol Transdermal Patch, e.g. Vivelle/Minivelle 0.025-0.1 mg/day, or Climara 0.025 to 0.1 mg/day together with transdermal progesterone cream, e.g. ProGest, 10-40 mg/day) for 1-18 months. The subject will be retested cognitively on a quarterly basis on the GCS (and by neuroimaging).

hESC = assay: P4 secretion into media from hESC; assay type: cell-based, human; conditions: hCG 500 mIU/ml, 6 days
Description: The concentration of P4 secreted into the media from hESCs treated ±hCG (500 mIU/ml) for 6 days. Results are expressed as micrograms P4 per microgram cellular protein, mean±SEM, n=3; *P<0.001.
hCG, like LH, is the main regulator of sex steroid synthesis, inducing the production of P4 which is converted into androstenedione/T and finally E2.

[3] = test system: adult male rats with CCI injury; assay: Gross lesion size after CCI; assay type: in vivo, rat
Experimental: as §1

[4] = test system: human embryonic stem cells (hESC); assay: hESC proliferation, trypan blue assay; assay type: cell-based; conditions: hCG 500 mIU/ml, 6 days
Experimental: Above: A schematic of the LHCGR activation site and binding site of rabbit polyclonal antibody against amino acids 15 to 38 of the extracellular binding domain.
FIG. 5A. hESC were grown in TESR1 media-Li in the presence of E2 (10 nM), P4 (2 μM) or E2 (10 nM)+P4 (2 μM) for 6 d and cell proliferation measured using the trypan blue assay. Results are expressed as mean±SEM, n=3 (*p<0.05, **p<0.005 compared to 6 d control). FIG. 5B. Equal amounts of protein from cell lysates of hESC treated for 9 d as described above were analyzed by immunoblot using a monoclonal antibody against nestin (clone 10C2; Chemicon, CA, USA). FIG. 5C. hESC were cultured for 4 days, enzymatically lifted and placed into EB media (containing serum) and rocked gently for an additional 4 days prior to being placed in one of two neural induction medias for an additional 11 days, where P4 was either absence or present. During this transition from EB to rosettes, colony structures treated with P4 also were treated with a Progesterone Receptor (PR) antagonist (RU-486; 20 μM) for 11 days. At 19 day, morphological observation and molecular analysis were performed. (i) Control structure, a minimum of three rosette structures were observed inside the cystic cavity (arrows). […] Equal amounts of protein from cell lysates of above structures were analyzed by immunoblot for nestin. […]

Q: With “hCG: heterodimeric glycoprotein hormone (α SEQ ID NO:1, β SEQ ID NO:2); given to the rats as Pregnyl” as the substance, how does the “effect on hypogonadism (T and P4) induced by Sham surgery or CCI” value [1] read?
A: Its value is “immediately reversed the hypogonadism”.

Q: And the “Rotarod latency to fall” value [2]?
A: The value was 167.6 ± 16.7 s.

Q: And the “GCS score compared to before treatment or untreated controls” value (subject with TBI)?
A: The value was “improved score in the GCS test”.

Q: And the “secretion of P4 from hESC” value (hESC)?
A: The value was “markedly increased the secretion of P4”.

Q: And the “reduction of gross lesion size compared to vehicle treated animals” value [3]?
A: Its value is 29.1%.

Q: What about the “gross lesion size as percent of total cortical area” value ([3]; immediate and chronic hCG) of the same substance?
A: Its value is 7.3±1.2%.

Q: And the “effect on suppression of hESC division by LHCGR blocking antibody” value [4]?
A: Its value is “reversed by treatment with hCG”.
